By pKa is commonly meant the pH at which an ionisable group is half protonated. A lower pKa goes with a stronger acid or weaker base.

The data set can be described thus: Dissociation constant, pKa of the compound by spectrophotometric analysis.

Molecules are shown by their SMILES.

For `NC(=O)c1cc[n+](Cc2ccc(C[n+]3cccc(/C=N/O)c3)cc2)cc1.[Br-].[Br-]`, the pKa was determined as 8.77.

For `NC(=O)c1ccc[n+](Cc2ccc(C[n+]3cccc(/C=N/O)c3)cc2)c1.[Br-].[Br-]`, the pKa was found to be 8.79.

`NC(=O)c1ccc[n+](Cc2cccc(C[n+]3ccc(/C=N/O)cc3)c2)c1.[Br-].[Br-]` displayed a pKa of 7.95.

Take `NC(=O)c1ccc[n+](Cc2ccccc2C[n+]2ccc(/C=N/O)cc2)c1.[Br-].[Br-]`: the pKa worked out at 7.85.

As for `NC(=O)c1cc[n+](Cc2ccccc2C[n+]2cccc(/C=N/O)c2)cc1.[Br-].[Br-]`, the pKa amounted to 8.59.

In turn, `NC(=O)c1cc[n+](Cc2ccccc2C[n+]2ccccc2/C=N/O)cc1.[Br-].[Br-]` showed a pKa of 7.77.

`NC(=O)c1cc[n+](Cc2ccccc2C[n+]2ccc(/C=N/O)cc2)cc1.[Br-].[Br-]` came in with a pKa of 7.94.

`NC(=O)c1cc[n+](Cc2cccc(C[n+]3cccc(/C=N/O)c3)c2)cc1.[Br-].[Br-]` came in with a pKa of 8.75.

As for `NC(=O)c1cc[n+](Cc2cccc(C[n+]3ccccc3/C=N/O)c2)cc1.[Br-].[Br-]`, the pKa was found to be 7.69.

In the case of `NC(=O)c1ccc[n+](Cc2ccccc2C[n+]2cccc(/C=N/O)c2)c1.[Br-].[Br-]`, the pKa was 8.69.

Regarding `NC(=O)c1ccc[n+](Cc2ccccc2C[n+]2ccccc2/C=N/O)c1.[Br-].[Br-]`, the pKa stood at 7.79.

`NC(=O)c1cc[n+](Cc2cccc(C[n+]3ccc(/C=N/O)cc3)c2)cc1.[Br-].[Br-]` registered a pKa of 8.01.

In turn, `NC(=O)c1cc[n+](Cc2ccc(C[n+]3ccccc3/C=N/O)cc2)cc1.[Br-].[Br-]` registered a pKa of 7.76.

In turn, `NC(=O)c1ccc[n+](Cc2cccc(C[n+]3cccc(/C=N/O)c3)c2)c1.[Br-].[Br-]` returned a pKa of 8.76.

Regarding `NC(=O)c1ccc[n+](Cc2cccc(C[n+]3ccccc3/C=N/O)c2)c1.[Br-].[Br-]`, the pKa was found to be 7.75.

`NC(=O)c1cc[n+](Cc2ccc(C[n+]3ccc(/C=N/O)cc3)cc2)cc1.[Br-].[Br-]` displayed a pKa of 8.09.

In turn, `NC(=O)c1ccc[n+](Cc2ccc(C[n+]3ccccc3/C=N/O)cc2)c1.[Br-].[Br-]` displayed a pKa of 7.72.

Regarding `NC(=O)c1ccc[n+](Cc2ccc(C[n+]3ccc(/C=N/O)cc3)cc2)c1.[Br-].[Br-]`, the pKa turned out to be 8.15.

(Values after ChEMBL document CHEMBL1821552, “Synthesis and in vitro evaluation of xylene linked carbamoyl bis-pyridinium monooximes as reactivators of organophosphorus (OP) inhibited electric eel acetylcholinesterase (AChE)” (2011).)
